Like-named read-outs stand apart in the source and are kept apart here.
Assays:
RyR2-P2328S = molecular target: T1, RyR2-P2328S (Homo sapiens, UniProt Q92736, P2328S); experiment: Single-channel recordings of CPVT-associated RyR2-P2328S; type: biochemical; settings: unphosphorylated RyR2-P2328S and PKA-phosphorylated RyR2-WT
T1 construct: made in house

The chains behind the UniProt entries cited, without tags or fusion partners.
UniProt Q92736, whole entry P2328S: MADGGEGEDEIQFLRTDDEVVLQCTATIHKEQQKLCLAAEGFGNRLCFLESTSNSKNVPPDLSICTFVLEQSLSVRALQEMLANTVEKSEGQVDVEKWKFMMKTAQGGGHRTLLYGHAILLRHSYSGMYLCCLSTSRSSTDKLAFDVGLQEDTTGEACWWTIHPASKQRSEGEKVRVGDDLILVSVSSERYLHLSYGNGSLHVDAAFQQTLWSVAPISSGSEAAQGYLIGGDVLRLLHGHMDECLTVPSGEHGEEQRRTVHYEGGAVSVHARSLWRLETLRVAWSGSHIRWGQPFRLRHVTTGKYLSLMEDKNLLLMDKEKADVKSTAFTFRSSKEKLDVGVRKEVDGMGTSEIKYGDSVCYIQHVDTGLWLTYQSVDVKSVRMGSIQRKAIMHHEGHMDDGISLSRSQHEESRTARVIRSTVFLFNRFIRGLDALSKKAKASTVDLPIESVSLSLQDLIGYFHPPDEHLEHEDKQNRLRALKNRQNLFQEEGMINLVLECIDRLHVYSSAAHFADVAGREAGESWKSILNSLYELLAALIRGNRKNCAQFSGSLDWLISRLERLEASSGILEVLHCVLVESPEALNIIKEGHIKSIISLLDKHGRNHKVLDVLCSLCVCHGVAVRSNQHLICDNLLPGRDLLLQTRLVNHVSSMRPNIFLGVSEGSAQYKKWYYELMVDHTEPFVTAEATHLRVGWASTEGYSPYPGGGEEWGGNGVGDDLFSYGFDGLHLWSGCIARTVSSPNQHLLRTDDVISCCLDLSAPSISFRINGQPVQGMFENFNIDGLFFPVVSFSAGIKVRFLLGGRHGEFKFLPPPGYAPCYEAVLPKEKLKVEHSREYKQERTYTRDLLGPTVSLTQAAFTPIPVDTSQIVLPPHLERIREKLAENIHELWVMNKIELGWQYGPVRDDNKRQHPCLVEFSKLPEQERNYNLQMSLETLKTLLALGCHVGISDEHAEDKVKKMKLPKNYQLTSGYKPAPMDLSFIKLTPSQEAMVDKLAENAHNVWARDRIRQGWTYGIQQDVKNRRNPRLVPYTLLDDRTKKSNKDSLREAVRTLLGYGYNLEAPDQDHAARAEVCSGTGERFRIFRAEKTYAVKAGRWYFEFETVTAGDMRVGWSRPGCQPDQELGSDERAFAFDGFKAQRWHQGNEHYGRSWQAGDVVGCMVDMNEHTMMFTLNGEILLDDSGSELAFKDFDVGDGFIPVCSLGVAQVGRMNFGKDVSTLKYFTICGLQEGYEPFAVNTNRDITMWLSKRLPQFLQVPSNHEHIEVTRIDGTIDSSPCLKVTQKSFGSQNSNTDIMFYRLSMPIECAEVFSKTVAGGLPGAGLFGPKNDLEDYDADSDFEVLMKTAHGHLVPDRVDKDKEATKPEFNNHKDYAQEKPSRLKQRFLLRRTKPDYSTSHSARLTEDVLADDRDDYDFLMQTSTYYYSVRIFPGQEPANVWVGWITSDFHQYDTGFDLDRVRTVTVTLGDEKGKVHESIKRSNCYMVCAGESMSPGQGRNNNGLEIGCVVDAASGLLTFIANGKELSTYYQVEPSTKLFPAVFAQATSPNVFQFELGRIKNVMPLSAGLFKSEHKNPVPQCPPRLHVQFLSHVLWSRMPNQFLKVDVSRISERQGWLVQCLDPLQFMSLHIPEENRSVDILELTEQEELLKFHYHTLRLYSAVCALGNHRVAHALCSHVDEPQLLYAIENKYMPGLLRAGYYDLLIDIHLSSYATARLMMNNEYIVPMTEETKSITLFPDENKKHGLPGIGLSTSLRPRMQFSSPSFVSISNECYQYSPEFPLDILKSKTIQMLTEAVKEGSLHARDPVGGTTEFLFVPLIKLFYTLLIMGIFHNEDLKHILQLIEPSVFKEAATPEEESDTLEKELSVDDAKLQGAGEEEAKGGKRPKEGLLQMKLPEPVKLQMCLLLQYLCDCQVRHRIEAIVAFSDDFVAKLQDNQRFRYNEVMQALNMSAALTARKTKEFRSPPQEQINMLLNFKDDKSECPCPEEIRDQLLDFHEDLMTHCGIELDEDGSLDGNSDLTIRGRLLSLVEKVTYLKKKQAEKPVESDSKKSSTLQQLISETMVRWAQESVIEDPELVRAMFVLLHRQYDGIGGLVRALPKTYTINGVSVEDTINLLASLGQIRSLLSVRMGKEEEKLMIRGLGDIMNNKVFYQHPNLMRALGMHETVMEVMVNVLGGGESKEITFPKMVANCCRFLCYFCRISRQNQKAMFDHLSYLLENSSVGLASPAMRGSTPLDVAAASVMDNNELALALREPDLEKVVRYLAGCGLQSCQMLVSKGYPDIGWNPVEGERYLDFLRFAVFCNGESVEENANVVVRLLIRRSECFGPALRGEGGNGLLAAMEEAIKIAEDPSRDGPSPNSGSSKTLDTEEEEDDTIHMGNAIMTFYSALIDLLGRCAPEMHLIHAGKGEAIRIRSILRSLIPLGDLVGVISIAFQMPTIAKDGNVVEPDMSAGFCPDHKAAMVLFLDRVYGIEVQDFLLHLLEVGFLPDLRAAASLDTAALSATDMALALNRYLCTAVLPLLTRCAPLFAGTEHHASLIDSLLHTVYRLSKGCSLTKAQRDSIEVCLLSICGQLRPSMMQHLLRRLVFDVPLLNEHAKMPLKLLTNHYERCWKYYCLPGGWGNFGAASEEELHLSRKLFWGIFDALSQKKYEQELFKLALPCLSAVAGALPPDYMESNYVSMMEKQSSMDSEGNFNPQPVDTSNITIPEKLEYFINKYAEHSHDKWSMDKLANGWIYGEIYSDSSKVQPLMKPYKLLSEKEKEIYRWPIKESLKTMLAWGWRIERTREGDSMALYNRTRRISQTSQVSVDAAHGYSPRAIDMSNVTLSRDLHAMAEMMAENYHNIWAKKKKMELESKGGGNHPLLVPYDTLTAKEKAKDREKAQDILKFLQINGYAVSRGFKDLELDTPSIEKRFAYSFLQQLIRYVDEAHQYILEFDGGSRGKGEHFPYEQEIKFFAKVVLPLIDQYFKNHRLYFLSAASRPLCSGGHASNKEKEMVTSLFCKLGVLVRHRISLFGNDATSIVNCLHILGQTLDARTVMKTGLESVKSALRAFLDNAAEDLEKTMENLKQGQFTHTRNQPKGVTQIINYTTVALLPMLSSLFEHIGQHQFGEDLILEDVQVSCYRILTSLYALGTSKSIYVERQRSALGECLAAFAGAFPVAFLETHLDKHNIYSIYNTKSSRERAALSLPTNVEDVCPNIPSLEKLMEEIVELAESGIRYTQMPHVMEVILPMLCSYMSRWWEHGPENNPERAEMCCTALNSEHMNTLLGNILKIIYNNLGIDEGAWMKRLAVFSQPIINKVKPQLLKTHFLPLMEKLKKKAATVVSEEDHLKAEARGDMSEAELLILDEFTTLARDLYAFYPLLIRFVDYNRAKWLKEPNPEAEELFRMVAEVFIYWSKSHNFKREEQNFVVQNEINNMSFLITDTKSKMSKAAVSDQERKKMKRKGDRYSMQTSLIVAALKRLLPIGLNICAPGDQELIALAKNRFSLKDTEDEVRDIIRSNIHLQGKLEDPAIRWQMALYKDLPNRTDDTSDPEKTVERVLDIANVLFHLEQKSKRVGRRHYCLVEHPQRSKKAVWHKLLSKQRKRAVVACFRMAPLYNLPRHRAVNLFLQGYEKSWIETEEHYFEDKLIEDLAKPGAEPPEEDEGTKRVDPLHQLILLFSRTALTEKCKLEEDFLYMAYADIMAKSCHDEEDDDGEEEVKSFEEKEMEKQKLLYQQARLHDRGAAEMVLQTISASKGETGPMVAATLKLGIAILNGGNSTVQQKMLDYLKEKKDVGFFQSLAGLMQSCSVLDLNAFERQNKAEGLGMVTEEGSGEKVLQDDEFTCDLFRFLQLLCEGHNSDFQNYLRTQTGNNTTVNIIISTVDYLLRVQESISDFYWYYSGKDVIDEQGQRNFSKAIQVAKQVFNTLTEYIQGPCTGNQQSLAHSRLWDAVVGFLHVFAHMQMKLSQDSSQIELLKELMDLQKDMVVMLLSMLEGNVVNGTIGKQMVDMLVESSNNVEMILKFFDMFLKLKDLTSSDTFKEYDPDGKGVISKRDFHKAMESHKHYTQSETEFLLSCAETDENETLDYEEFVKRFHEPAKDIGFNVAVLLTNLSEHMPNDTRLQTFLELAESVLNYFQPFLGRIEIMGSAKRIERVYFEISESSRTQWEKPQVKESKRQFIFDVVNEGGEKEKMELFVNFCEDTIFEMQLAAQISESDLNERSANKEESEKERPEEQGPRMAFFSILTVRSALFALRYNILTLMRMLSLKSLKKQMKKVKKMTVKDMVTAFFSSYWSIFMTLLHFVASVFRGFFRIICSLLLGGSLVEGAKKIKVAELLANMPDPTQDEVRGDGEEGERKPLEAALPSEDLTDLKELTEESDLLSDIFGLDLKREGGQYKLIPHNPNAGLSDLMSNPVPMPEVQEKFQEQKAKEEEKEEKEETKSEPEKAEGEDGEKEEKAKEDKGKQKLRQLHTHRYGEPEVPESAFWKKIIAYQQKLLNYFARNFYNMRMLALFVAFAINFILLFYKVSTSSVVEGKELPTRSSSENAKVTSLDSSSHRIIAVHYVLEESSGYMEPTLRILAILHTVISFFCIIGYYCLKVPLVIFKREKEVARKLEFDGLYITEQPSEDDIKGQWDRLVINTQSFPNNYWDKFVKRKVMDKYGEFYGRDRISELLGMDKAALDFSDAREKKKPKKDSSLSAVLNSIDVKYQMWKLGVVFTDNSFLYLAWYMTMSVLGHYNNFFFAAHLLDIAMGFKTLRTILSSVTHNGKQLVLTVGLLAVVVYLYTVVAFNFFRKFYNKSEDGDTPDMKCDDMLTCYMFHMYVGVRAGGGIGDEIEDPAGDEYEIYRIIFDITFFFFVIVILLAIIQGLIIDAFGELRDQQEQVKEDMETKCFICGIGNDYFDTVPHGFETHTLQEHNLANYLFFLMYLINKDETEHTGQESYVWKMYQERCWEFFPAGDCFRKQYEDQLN

[1] = molecular target: T2, PKA phosphorylated RyR2 / calstabin2 (Homo sapiens, UniProt Q92736); settings: cardiac RyR2 with calstabin2, immunoblotting
[2] = molecular target: T2, PKA phosphorylated RyR2 / calstabin2
RyR2 [3] = molecular target: T3, RyR2 (Mus musculus, UniProt E9Q401)
RyR2 [4] = molecular target: T3, RyR2; settings: 0.5 mg/kg/h for 28 days post-myocardial infarction

COc1ccc2c(c1)CN(C(=O)CCN1CCC(Cc3ccccc3)CC1)CCS2.Cl [JTV-519, 4-[3-(4-benzylpiperidin-1-yl)propionyl]-7-methoxy-2,3,4,5-tetrahydro-1,4-benzothiazepine monohydrochloride]
baseline channel function (RyR2-P2328S): no influence
concentration that increased the binding affinity of calstabin for RyR [1]: ≥ 50 nM
affinity of calstabin2 for PKA-phosphorylated RyR2 channels [2]: significantly increases
channel open probability (Po) (RyR2 [3]; exercised calstabin2+/- mice, vs untreated exercised mice): significantly reduced
channel open probability (Po) (RyR2 [3]; exercised calstabin2-/- deficient mice): did not result in channels with a low Po
depletion of calstabin2 from the RyR2 macromolecular complex (RyR2 [3]; haploinsufficient calstabin2+/- mice): reversed
PKA phosphorylation of RyR2 (RyR2 [4]; calstabin-2 (FKBP12.6)-/- mice): not
PKA phosphorylation of RyR2 (RyR2 [4]; wildtype mice): reduces
